# The list shows a part of the results, in another mix than the full data. Results filed as inconclusive are left out. A call without a number means that no potency is given here. Some structures show a salt or complex split into parts, the way the source records it. The source made the active and inactive calls. Calls come from the whole dose curve; as a rule, active = well fitted inhibition curve with a large enough effect; inconclusive = small, poorly fitted or top-dose-only effect; inactive = no such curve, though single readings can be large or run the other way.
# Protein sequences, listed by entry. Tags and fused reporters are not part of them.
# UniProt O89049, whole entry: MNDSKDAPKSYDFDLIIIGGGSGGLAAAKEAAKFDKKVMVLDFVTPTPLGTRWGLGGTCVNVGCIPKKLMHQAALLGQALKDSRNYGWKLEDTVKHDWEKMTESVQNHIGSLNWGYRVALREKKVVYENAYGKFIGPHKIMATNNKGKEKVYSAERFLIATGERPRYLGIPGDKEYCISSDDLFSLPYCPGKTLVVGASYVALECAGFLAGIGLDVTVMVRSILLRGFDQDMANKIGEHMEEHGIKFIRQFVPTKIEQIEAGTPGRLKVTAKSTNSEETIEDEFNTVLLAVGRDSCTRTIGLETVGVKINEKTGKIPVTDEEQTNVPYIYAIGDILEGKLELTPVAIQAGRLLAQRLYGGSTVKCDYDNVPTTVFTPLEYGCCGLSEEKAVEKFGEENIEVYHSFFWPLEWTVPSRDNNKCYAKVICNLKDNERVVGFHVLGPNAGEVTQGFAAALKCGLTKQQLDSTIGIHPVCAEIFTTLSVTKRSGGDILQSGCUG
# Molecular target: Thioredoxin reductase 1, cytoplasmic (Rattus norvegicus) (UniProt O89049)
# Assay: qHTS Assay for Inhibitors of Mammalian Selenoprotein Thioredoxin Reductase 1 (TrxR1): qHTS; note: nearly all actives have a fitted effect of over 65% in size
# Conditions: recombinant rTrxR1, NADPH fluorescence consumption, selenite substrate; series mostly up to 114 µM
# Potency is the fitted concentration of half-maximal effect.
Structure (SMILES),"activity change, negative = inhibition",Potency
CSc1ccc(C(=O)NCC2(N3CCOCC3)CCCCC2)cc1,inactive,–
CCOc1ccc(C(=O)NCC2(N3CCOCC3)CCCCC2)cc1,inactive,–
O=C(NCC1(N2CCCCC2)CCCCC1)c1cccc([N+](=O)[O-])c1,inactive,–
CCN1CCC(Nc2ccc(Cl)cc2)CC1,inactive,–
N#CC1(Nc2ccccc2)CCN(CCc2ccccc2)CC1,inactive,–
O=C(NCC1(N2CCCCC2)CCCCC1)c1ccc(OC(F)F)cc1,inactive,–
COc1ccc(NC2CCN(C(=O)OC(C)(C)C)CC2)cc1,inactive,–
CC(C)c1ccc(C(=O)NCC2(N3CCOCC3)CCCCC2)cc1,inactive,–
CN1CCN(CCOC(=O)C(O)(c2ccccc2)c2ccccc2)CC1,inactive,–
O=C(NCC1(N2CCOCC2)CCCCC1)c1cc(=O)[nH]c2ccccc12,inactive,–
COc1cc(C(=O)NCC2(N3CCCCC3)CCCCC2)ccc1OC(F)F,inactive,–
O=C(NCC1(N2CCCCC2)CCCCC1)c1cccc(C(F)(F)F)c1,inactive,–
CCCOc1cccc(C(=O)NCC2(N3CCOCC3)CCCCC2)c1,inactive,–
COc1cc(OC)c(C(=O)NCC2(N(C)C)CCCCC2)cc1OC,inactive,–
O=C(NCC1(N2CCOCC2)CCCCC1)c1cc(F)c(F)cc1Cl,inactive,–
COc1ccc(CN(CCCl)CCCl)cc1Cl,–,active: 7.08 µM
CN(C)c1cccc(C(=O)NCC2(N3CCCCC3)CCCCC2)c1,inactive,–
O=[N+]([O-])c1cc([N+](=O)[O-])c(OC2CCCCC2O)c([N+](=O)[O-])c1 (stereo unspecified),inactive,–
CC(C)c1ccc(NC2CCN(C(=O)OC(C)(C)C)CC2)cc1,inactive,–
CCCCOc1ccccc1C(=O)NCC1(N2CCOCC2)CCCCC1,inactive,–
CCCOc1ccc(C(=O)NCC2(N(C)C)CCCCC2)cc1OC,inactive,–
O=C(NCC1(N2CCOCC2)CCCCC1)c1ccccc1Br,inactive,–
O=C(NCC1(N2CCCCC2)CCCCC1)c1cncc(Br)c1,inactive,–

Structure (SMILES),"activity change, negative = inhibition",Potency
COc1ccc2c(c1O)-c1c(O)c(OC)cc3c1[C@H](C2)[N+](C)(C)CC3.O=[N+]([O-])c1cc([N+](=O)[O-])c([O-])c([N+](=O)[O-])c1[O-],inactive,–
CN1CCC(Nc2cccc(F)c2)CC1,inactive,–
O=C(OC1CN2CCC1CC2)c1ccc([N+](=O)[O-])cc1 (stereo unspecified),inactive,–
CSc1ccccc1C(=O)NCC1(N2CCCCC2)CCCCC1,inactive,–
Cc1cccc(NC2(C#N)CCN(Cc3ccccc3)CC2)c1,inactive,–
O=C(NCC1(N2CCCCC2)CCCCC1)c1ccc(=O)[nH]c1,inactive,–
O=C(NCC1(N2CCCCC2)CCCCC1)c1cccs1,inactive,–
COc1ccc(C(=O)NCC2(N3CCCCC3)CCCCC2)cc1,inactive,–
COc1ccc(C(=O)NCC2(N3CCCCC3)CCCCC2)c(OC)c1OC,inactive,–
CC(C)(C)OC(=O)N1CCC(N(C(=O)c2ccccc2)c2ccc(F)cc2)CC1,inactive,–
CCOC(=O)N1CCC(Nc2ccc(OC)cc2)CC1,inactive,–
O=C(OC1CN2CCC1CC2)C1c2ccccc2Oc2ccccc21 (stereo unspecified),inactive,–
N#CC1(Nc2ccccc2)CCN(Cc2ccccc2)CC1,inactive,–
O=C(NCC1(N2CCCCC2)CCCCC1)c1ccc(Cl)s1,inactive,–
O=C1C(O)=C([N+](=O)[O-])C(=O)C(O)=C1[N+](=O)[O-],inactive,–
COc1ccc(Cl)cc1C(=O)NCC1(N2CCOCC2)CCCCC1,inactive,–
O=C(NCC1(N2CCOCC2)CCCCC1)c1cc2ccccc2o1,inactive,–
O=C(NCC1(N2CCCCC2)CCCCC1)c1ccc(Cl)nc1,inactive,–
Cc1cc(C)cc(N(C(=O)c2ccccc2)C2CCN(C(=O)OC(C)(C)C)CC2)c1,inactive,–
O=C(NCC1(N2CCCCC2)CCCCC1)c1ccc(F)cc1,inactive,–
CCCCOc1ccc(C(=O)NCC2(N3CCOCC3)CCCCC2)cc1,inactive,–
O=P1(N(CCCl)CCCl)SCCCS1,inactive,–
CCOC(=O)N1CCC(Nc2ccc(F)cc2)CC1,inactive,–

Structure (SMILES),"activity change, negative = inhibition",Potency
COc1ccc(NC2CCN(CCc3ccccc3)CC2)c(OC)c1,inactive,–
COc1ccccc1C(=O)NCC1(N2CCOCC2)CCCCC1,inactive,–
O=C(NCC1(N2CCOCC2)CCCCC1)c1ccc(Cl)cc1,inactive,–
O=C1CCN(Cc2ccccc2)CC1,inactive,–
COc1cc(C(=O)NCC2(N(C)C)CCCCC2)ccc1OC(F)F,inactive,–
CCOC(=O)N1CCC(Nc2cccc(C)c2)CC1,inactive,–
Cc1ccc(NC2(C#N)CCN(Cc3ccccc3)CC2)cc1,inactive,–
Cc1ccc(C(=O)NCC2(N3CCCCC3)CCCCC2)o1,inactive,–
Fc1ccccc1NC1CCN(Cc2ccccc2)CC1,inactive,–
COc1cc(OC)cc(C(=O)NCC2(N3CCCCC3)CCCCC2)c1,inactive,–
CC(=O)N(c1ccccc1)C1CCNCC1,inactive,–
CN(C)C1(CNC(=O)c2ccc(C(C)(C)C)cc2)CCCCC1,inactive,–
CC(C)(C)c1ccc(C(=O)NCC2(N3CCOCC3)CCCCC2)cc1,inactive,–
O=C(NCC1(N2CCCCC2)CCCCC1)c1ccco1,inactive,–
CN(C)c1ccc(C(=O)NCC2(N3CCCCC3)CCCCC2)cc1,inactive,–
Cc1ccccc1C(=O)NCC1(N(C)C)CCCCC1,inactive,–
Cc1ccccc1NC1(C#N)CCN(Cc2ccccc2)CC1,inactive,–
CCN1CCC(Nc2cccc(F)c2)CC1,inactive,–
CCCOc1ccc(C(=O)NCC2(N(C)C)CCCCC2)cc1,inactive,–
CC(C)(C)OC(=O)N1CCC(Nc2ccccc2)CC1,inactive,–
O=C(O)C1(Nc2ccccc2)CCN(Cc2ccccc2)CC1,inactive,–
CCOc1ncccc1C(=O)NCC1(N2CCOCC2)CCCCC1,inactive,–
CN1CCC(Nc2ccc(F)c(Cl)c2)CC1,inactive,–

Structure (SMILES),"activity change, negative = inhibition",Potency
CN1CCC(Nc2ccc(Cl)cc2)CC1,inactive,–
CCC(CO)(C(=O)OC1CN2CCC1CC2)c1ccccc1 (stereo unspecified),inactive,–
COc1cccc(C(=O)N(c2cc(C)cc(C)c2)C2CCN(C(=O)OC(C)(C)C)CC2)c1,inactive,–
COc1cc(C(=O)NCC2(N3CCOCC3)CCCCC2)cc(OC)c1OC,inactive,–
COc1cc(OC)cc(C(=O)NCC2(N3CCOCC3)CCCCC2)c1,inactive,–
O=Cc1ccc(N(CCCl)CCCl)cc1,inactive,–
O=C(NCC1(N2CCOCC2)CCCCC1)c1cc(Br)ccc1Cl,inactive,–
COc1cc(C(=O)NCC2(N3CCOCC3)CCCCC2)cc(OC)c1C,inactive,–
O=C(OC1CN2CCC1CC2)C1c2ccccc2C=Cc2ccccc21 (stereo unspecified),inactive,–
CCc1cc(C(=O)NCC2(N3CCCCC3)CCCCC2)sc1C,inactive,–
N/C(=N\O)c1c(N)no[n+]1[O-],inactive,–
CCOC(=O)N1CCC(Nc2ccc(C)cc2)CC1,inactive,–
CCOC(=O)C(CC)C1=NC(C)(C)Cc2ccccc21.O=[N+]([O-])c1cc([N+](=O)[O-])c(O)c([N+](=O)[O-])c1 (stereo unspecified),inactive,–
O=C(NCC1(N2CCOCC2)CCCCC1)c1ccc([N+](=O)[O-])cc1,inactive,–
CC(C)(C)OC(=O)N1CCC(N(C(=O)c2ccccc2)c2ccc(Cl)cc2)CC1,inactive,–
O=C(NCC1(N2CCOCC2)CCCCC1)c1ccccc1[N+](=O)[O-],inactive,–
N#Cc1ccc(C(=O)NCC2(N3CCCCC3)CCCCC2)cc1,inactive,–
c1ccc(CN2CCC(Nc3ccccc3)CC2)cc1,inactive,–
CCCN1CCC(Nc2cc(OC)cc(OC)c2)CC1,inactive,–
Cc1cc(N(CCCl)CCCl)ccc1C=O,inactive: 9.18% [at 11.4 µM],–
O=C(NCC1(N2CCOCC2)CCCCC1)c1ccccc1,inactive,–
CN(C)C1(CNC(=O)c2cccc(C#N)c2)CCCCC1,inactive,–
